The values below come from patent publication US20260200947A1, “FUSED CYCLIC COMPOUNDS AND USE THEREOF” (Jacobio Pharmaceuticals Co., Ltd., priority 2022, published 2026).

The chains behind the UniProt entries cited, without tags or fusion partners. Residues count along the entry.
UniProt P01116, 1-169 isoform 2 G12D limits assumed: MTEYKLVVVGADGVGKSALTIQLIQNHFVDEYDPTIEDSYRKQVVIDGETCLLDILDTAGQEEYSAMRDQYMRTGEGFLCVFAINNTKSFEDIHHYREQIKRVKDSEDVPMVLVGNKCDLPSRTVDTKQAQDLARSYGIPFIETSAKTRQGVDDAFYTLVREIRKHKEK
UniProt P01116, 1-169 isoform 2 G12V limits assumed: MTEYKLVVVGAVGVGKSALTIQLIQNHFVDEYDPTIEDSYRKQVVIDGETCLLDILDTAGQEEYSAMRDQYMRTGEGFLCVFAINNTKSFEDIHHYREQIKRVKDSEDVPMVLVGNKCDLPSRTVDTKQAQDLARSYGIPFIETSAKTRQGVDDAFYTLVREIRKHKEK

What is called IC50 is the concentration needed to halve the response being measured.

One assay concerns the target GppNp-KRAS G12D (Homo sapiens, UniProt P01116, G12D). Put plainly: GTP-K-Ras and cRAF interaction assay, GppNp-KRAS G12D. The note with it: read-out: Biochemical assays, IC50, KRAS G12D GppNp; GppNp-loaded K-Ras G12D, cRAF RBD interaction, HTRF. A general note: In TR-FRET formats the signal depends on donor and acceptor labels being close together.
With `C#Cc1c(F)ccc2cc(N)cc(-c3nc4c5c(nc(OCC67CCCN6CC(F)C7)nc5c3F)N3CC(C)(O)COCC3N4C)c12` (single isomer, unassigned) [Compound 156A], the half-inhibitory concentration (IC50) turned out to be 126 nM.

For the molecule `C#Cc1c(F)ccc2cc(N)cc(-c3nc4c5c(nc(OC[C@@]67CCCN6C[C@H](F)C7)nc5c3F)N3CCCC=C[C@H]3N4C)c12`, the IC50 was determined as 114 nM.

Turning to `C#Cc1c(F)ccc2cc(N)cc(-c3nc4c5c(nc(OCC67CCCN6CC(F)C7)nc5c3F)N3CC(C)(O)COCC3N4C)c12` (single isomer, unassigned) [Compound 156B], the IC50 is more than 1000 nM.

Consider `C#Cc1c(F)ccc2cc(N)cc(-c3nc4c5c(nc(OC[C@@]67CCCN6C[C@H](F)C7)nc5c3F)N3C[C@@H](OC)COC[C@H]3N4C)c12`, for which the IC50 was 339 nM.

The assay is the same for the next values; noted with them: read-out: Biochemical assays, IC50, KRAS G12D GppNp; GppNp-loaded K-Ras G12D, cRAF RBD interaction, HTRF; tested form: TFA.
Take `C#Cc1c(F)ccc2cc(N)cc(-c3nc4c5c(nc(OC[C@@]67CCCN6C[C@H](F)C7)nc5c3F)N3CCCOCC3N4CC)c12` (stereo partly drawn): the IC50 stood at 302 nM.

Still in this assay, the particulars now being: read-out: Biochemical assays, IC50, KRAS G12D GppNp; GppNp-loaded K-Ras G12D, cRAF RBD interaction, HTRF; tested form: trifluoroacetate (TFA salt).
For `C#Cc1c(F)ccc2cc(N)cc(-c3nc4c5c(nc(OCC67CCCN6CC(=CF)C7)nc5c3F)N3CCCOC[C@H]3CO4)c12` (single isomer, unassigned) [Compound 5B], the IC50 worked out at 80.8 nM.

`C#Cc1c(F)ccc2cc(N)cc(-c3nc4c5c(nc(OCC67CCCN6CC(=CF)C7)nc5c3F)N3CCCOC[C@H]3CO4)c12` (single isomer, unassigned) [Compound 5A]: the half-maximal inhibitory concentration (IC50) is 104 nM.

For a further assay, the target named is GppNp-KRAS G12V (Homo sapiens, UniProt P01116, G12V). Put plainly: GTP-K-Ras and cRAF interaction assay, GppNp-KRAS G12V. The note with it: read-out: Biochemical assays, IC50, KRAS G12V GppNp; GppNp-loaded K-Ras G12V, cRAF RBD interaction, HTRF.
Turning to `C#Cc1c(F)ccc2cc(N)cc(-c3nc4c5c(nc(OCC67CCCN6CC(F)C7)nc5c3F)N3CC(C)(O)COCC3N4C)c12` (single isomer, unassigned) [Compound 156A], the half-maximal inhibitory concentration (IC50) was 440 nM.

On to `C#Cc1c(F)ccc2cc(N)cc(-c3nc4c5c(nc(OC[C@@]67CCCN6C[C@H](F)C7)nc5c3F)N3CCCC=C[C@H]3N4C)c12`, for which the IC50 was determined as 427 nM.

Take `C#Cc1c(F)ccc2cc(N)cc(-c3nc4c5c(nc(OCC67CCCN6CC(F)C7)nc5c3F)N3CC(C)(O)COCC3N4C)c12` (single isomer, unassigned) [Compound 156B]: the half-inhibitory concentration (IC50) was more than 1000 nM.

As for `C#Cc1c(F)ccc2cc(N)cc(-c3nc4c5c(nc(OC[C@@]67CCCN6C[C@H](F)C7)nc5c3F)N3C[C@@H](OC)COC[C@H]3N4C)c12`, the 50% inhibitory concentration (IC50) was more than 1000 nM.

The assay is the same for the next values; noted with them: read-out: Biochemical assays, IC50, KRAS G12V GppNp; GppNp-loaded K-Ras G12V, cRAF RBD interaction, HTRF; tested form: TFA.
For the molecule `C#Cc1c(F)ccc2cc(N)cc(-c3nc4c5c(nc(OC[C@@]67CCCN6C[C@H](F)C7)nc5c3F)N3CCCOCC3N4CC)c12` (stereo partly drawn), the concentration for half-maximal inhibition (IC50) stood at 265 nM.

Staying with this assay, now noted: read-out: Biochemical assays, IC50, KRAS G12V GppNp; GppNp-loaded K-Ras G12V, cRAF RBD interaction, HTRF; tested form: trifluoroacetate (TFA salt).
Consider `C#Cc1c(F)ccc2cc(N)cc(-c3nc4c5c(nc(OCC67CCCN6CC(=CF)C7)nc5c3F)N3CCCOC[C@H]3CO4)c12` (single isomer, unassigned) [Compound 5B], for which the IC50 worked out at 161 nM.

Turning to `C#Cc1c(F)ccc2cc(N)cc(-c3nc4c5c(nc(OCC67CCCN6CC(=CF)C7)nc5c3F)N3CCCOC[C@H]3CO4)c12` (single isomer, unassigned) [Compound 5A], the IC50 came out at 130 nM.

A further assay deals with SW620 cells (K-Ras G12V). Put plainly: Phospho-ERK1/2(THR202/TYR204) HTRF assay, SW620. The note with it: read-out: pERK, IC50, SW620, 2 hours incubation.
For the molecule `C#Cc1c(F)ccc2cc(N)cc(-c3nc4c5c(nc(OC[C@@]67CCCN6C[C@H](F)C7)nc5c3F)N3CCCC=C[C@H]3N4C)c12`, the half-maximal inhibitory concentration (IC50) was 6.39 nM.

The assay is the same for the next values; noted with them: read-out: pERK, IC50, SW620, 2 hours incubation, tested form: TFA.
Take `C#Cc1c(F)ccc2cc(N)cc(-c3nc4c5c(nc(OC[C@@]67CCCN6C[C@H](F)C7)nc5c3F)N3CCCOCC3N4CC)c12` (stereo partly drawn): the IC50 turned out to be 5.63 nM.

In another assay the target is GDP-KRAS G12V (Homo sapiens, UniProt P01116, G12V). Kind of assay: SOS1 catalyzed nucleotide exchange assay, GDP-KRAS G12V. The note with it: read-out: Biochemical assays, IC50, KRAS G12V GDP, GDP form K-Ras G12V, TR-FRET.
`C#Cc1c(F)ccc2cc(N)cc(-c3nc4c5c(nc(OCC67CCCN6CC(F)C7)nc5c3F)N3CC(C)(O)COCC3N4C)c12` (single isomer, unassigned) [Compound 156A]: the IC50 stood at 1.98 nM.

`C#Cc1c(F)ccc2cc(N)cc(-c3nc4c5c(nc(OC[C@@]67CCCN6C[C@H](F)C7)nc5c3F)N3CCCC=C[C@H]3N4C)c12`: the IC50 came out at 1.81 nM.

For `C#Cc1c(F)ccc2cc(N)cc(-c3nc4c5c(nc(OCC67CCCN6CC(F)C7)nc5c3F)N3CC(C)(O)COCC3N4C)c12` (single isomer, unassigned) [Compound 156B], the IC50 was found to be 37.8 nM.

`C#Cc1c(F)ccc2cc(N)cc(-c3nc4c5c(nc(OC[C@@]67CCCN6C[C@H](F)C7)nc5c3F)N3C[C@@H](OC)COC[C@H]3N4C)c12`: the half-inhibitory concentration (IC50) is 1.7 nM.

The assay is the same for the next values; noted with them: read-out: Biochemical assays, IC50, KRAS G12V GDP, GDP form K-Ras G12V, TR-FRET, tested form: TFA.
On to `C#Cc1c(F)ccc2cc(N)cc(-c3nc4c5c(nc(OC[C@@]67CCCN6C[C@H](F)C7)nc5c3F)N3CCCOCC3N4CC)c12` (stereo partly drawn), for which the IC50 was found to be 3.18 nM.

The assay is the same for the next values; noted with them: read-out: Biochemical assays, IC50, KRAS G12V GDP, GDP form K-Ras G12V, TR-FRET, tested form: trifluoroacetate (TFA salt).
Consider `C#Cc1c(F)ccc2cc(N)cc(-c3nc4c5c(nc(OCC67CCCN6CC(=CF)C7)nc5c3F)N3CCCOC[C@H]3CO4)c12` (single isomer, unassigned) [Compound 5B], for which the IC50 was 0.86 nM.

Regarding `C#Cc1c(F)ccc2cc(N)cc(-c3nc4c5c(nc(OCC67CCCN6CC(=CF)C7)nc5c3F)N3CCCOC[C@H]3CO4)c12` (single isomer, unassigned) [Compound 5A], the 50% inhibitory concentration (IC50) was 1.12 nM.

The target of another assay is GDP-KRAS G12D (Homo sapiens, UniProt P01116, G12D). Kind of assay: SOS1 catalyzed nucleotide exchange assay, GDP-KRAS G12D. The following applies: read-out: Biochemical assays, IC50, KRAS G12D GDP, GDP form K-Ras G12D, TR-FRET.
In the case of `C#Cc1c(F)ccc2cc(N)cc(-c3nc4c5c(nc(OCC67CCCN6CC(F)C7)nc5c3F)N3CC(C)(O)COCC3N4C)c12` (single isomer, unassigned) [Compound 156A], the IC50 stood at 3.4 nM.

For the molecule `C#Cc1c(F)ccc2cc(N)cc(-c3nc4c5c(nc(OC[C@@]67CCCN6C[C@H](F)C7)nc5c3F)N3CCCC=C[C@H]3N4C)c12`, the IC50 came to 2.02 nM.

Regarding `C#Cc1c(F)ccc2cc(N)cc(-c3nc4c5c(nc(OCC67CCCN6CC(F)C7)nc5c3F)N3CC(C)(O)COCC3N4C)c12` (single isomer, unassigned) [Compound 156B], the IC50 came to 63.8 nM.

As for `C#Cc1c(F)ccc2cc(N)cc(-c3nc4c5c(nc(OC[C@@]67CCCN6C[C@H](F)C7)nc5c3F)N3C[C@@H](OC)COC[C@H]3N4C)c12`, the IC50 was 3.08 nM.

Staying with this assay, now noted: read-out: Biochemical assays, IC50, KRAS G12D GDP, GDP form K-Ras G12D, TR-FRET, tested form: TFA.
As to `C#Cc1c(F)ccc2cc(N)cc(-c3nc4c5c(nc(OC[C@@]67CCCN6C[C@H](F)C7)nc5c3F)N3CCCOCC3N4CC)c12` (stereo partly drawn), the half-inhibitory concentration (IC50) was found to be 3.56 nM.

Still in this assay, the particulars now being: read-out: Biochemical assays, IC50, KRAS G12D GDP, GDP form K-Ras G12D, TR-FRET, tested form: trifluoroacetate (TFA salt).
For the molecule `C#Cc1c(F)ccc2cc(N)cc(-c3nc4c5c(nc(OCC67CCCN6CC(=CF)C7)nc5c3F)N3CCCOC[C@H]3CO4)c12` (single isomer, unassigned) [Compound 5B], the IC50 turned out to be 1.62 nM.

On to `C#Cc1c(F)ccc2cc(N)cc(-c3nc4c5c(nc(OCC67CCCN6CC(=CF)C7)nc5c3F)N3CCCOC[C@H]3CO4)c12` (single isomer, unassigned) [Compound 5A], for which the IC50 is 1.82 nM.
